{
  "source": "patent US3931396A",
  "about": "“Method of preparation of a composition having a base of 99^m technetium for diagnosis by scintigraphy” (priority 1974, dated 1976)",
  "origin": "cited, not measured here",
  "test_system": "bone",
  "details": "prior art, in words; cited from earlier work",
  "data": [
    {"substance": "fluorophosphate", "values": [
      {"measurement": "tropism", "result": "poor tropism"}
    ]}
  ]
}
